Measurements from ChEMBL document CHEMBL1123303, “Synthesis of 2-(4-substituted-1-piperazinyl)benzimidazoles as H1-antihistaminic agents” (J Med Chem, 1986).

Amino acid sequences for entries named in this document (tags omitted).
UniProt P31389, whole entry, looked up: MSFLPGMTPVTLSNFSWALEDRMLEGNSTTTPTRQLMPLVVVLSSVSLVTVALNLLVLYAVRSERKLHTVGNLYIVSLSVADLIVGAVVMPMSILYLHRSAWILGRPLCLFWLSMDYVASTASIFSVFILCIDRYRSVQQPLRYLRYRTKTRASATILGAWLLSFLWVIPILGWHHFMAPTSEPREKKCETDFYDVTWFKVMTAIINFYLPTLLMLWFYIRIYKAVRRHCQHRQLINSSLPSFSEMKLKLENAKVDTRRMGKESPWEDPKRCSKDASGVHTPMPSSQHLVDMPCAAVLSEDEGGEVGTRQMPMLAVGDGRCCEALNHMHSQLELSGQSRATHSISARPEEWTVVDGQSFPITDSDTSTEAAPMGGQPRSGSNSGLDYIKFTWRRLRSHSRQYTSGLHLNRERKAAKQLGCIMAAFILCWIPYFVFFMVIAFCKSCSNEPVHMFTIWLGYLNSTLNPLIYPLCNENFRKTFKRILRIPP

Target: Histamine H1 receptor (Cavia porcellus, UniProt P31389)
Assay: In vitro inhibition of histamine-induced contractions in guinea pig ileum
Assay type: functional, tissue-based

Compound: CCNCCn1c(N2CCN(C)CC2)nc2ccccc21
- IC50: 290 nM
